Assay results reported in PMC12363935, “Unc-51 Like Kinase 3 (ULK3) is essential for autophagy and cell survival in multiple myeloma” (Research Square, 2025).

The chains behind the UniProt entries cited, without tags or fusion partners.
UniProt O60674, whole entry: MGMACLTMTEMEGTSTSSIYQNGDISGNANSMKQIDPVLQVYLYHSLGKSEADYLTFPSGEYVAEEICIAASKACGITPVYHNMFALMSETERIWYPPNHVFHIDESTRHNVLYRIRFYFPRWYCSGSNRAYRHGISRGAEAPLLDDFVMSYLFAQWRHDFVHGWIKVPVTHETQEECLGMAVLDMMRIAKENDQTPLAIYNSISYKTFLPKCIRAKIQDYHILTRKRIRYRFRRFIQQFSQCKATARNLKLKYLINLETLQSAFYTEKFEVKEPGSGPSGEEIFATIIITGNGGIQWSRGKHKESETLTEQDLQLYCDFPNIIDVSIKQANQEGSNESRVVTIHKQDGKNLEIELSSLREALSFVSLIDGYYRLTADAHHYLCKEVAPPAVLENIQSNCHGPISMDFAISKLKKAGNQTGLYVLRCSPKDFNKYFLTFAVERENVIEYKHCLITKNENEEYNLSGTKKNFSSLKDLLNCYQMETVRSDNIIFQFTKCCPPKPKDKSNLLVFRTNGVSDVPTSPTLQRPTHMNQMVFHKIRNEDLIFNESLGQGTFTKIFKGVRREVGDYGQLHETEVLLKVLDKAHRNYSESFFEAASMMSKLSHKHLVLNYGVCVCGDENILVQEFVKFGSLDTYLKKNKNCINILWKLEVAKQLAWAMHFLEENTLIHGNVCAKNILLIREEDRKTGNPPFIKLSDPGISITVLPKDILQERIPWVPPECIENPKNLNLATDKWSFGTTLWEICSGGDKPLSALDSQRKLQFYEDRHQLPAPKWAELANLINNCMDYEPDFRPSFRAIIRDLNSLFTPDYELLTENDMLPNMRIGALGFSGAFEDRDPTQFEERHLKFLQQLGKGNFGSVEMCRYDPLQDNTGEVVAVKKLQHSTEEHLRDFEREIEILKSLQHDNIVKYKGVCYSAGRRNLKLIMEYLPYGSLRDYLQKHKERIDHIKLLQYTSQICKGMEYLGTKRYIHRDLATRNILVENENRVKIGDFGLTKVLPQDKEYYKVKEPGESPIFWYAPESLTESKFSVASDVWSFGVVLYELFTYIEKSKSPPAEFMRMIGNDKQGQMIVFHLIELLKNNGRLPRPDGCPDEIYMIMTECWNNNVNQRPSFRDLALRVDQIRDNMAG

Tests used:
osteoclasts = test: In vitro osteoclast differentiation assay, TRAcP staining; assay type: cell-based, C57BL/6 Rag2-/- mice
Description: 340 Detection was carried out through the AlphaScreen Binding assay with excitation/emission
341 wavelengths set at 680/520-620 nm, respectively, using the Enspire platform.
342 The data acquisition included raw data, represented as signal-background*, % Binding (relative to
343 DMSO controls), and curve fits.
346 is presented in Supplementary Fig. 4A.
349 WM1366 mCherry-GFP-LC3 cells were obtained as a kind gift of Dr. Keiran Smalley’s
350 collaboration with The Wistar Institute and produced as previously described.
352 medium was refreshed with RPMI containing 10% fetal bovine serum, and treated with vehicle
353 control, SG3-014, MA9-060, JQ1, CQ (0.1 µM). After 6 hours, cells were fixed and permeabilized
355 Imaging was performed with an inverted Leica SP8 confocal microscope equipped with an
356 40X/1.3NA oil lens objective. Cells were mounted in a 35 mm FluoroDish Cell Culture Dish (WPI,
357 Sarasota, FL), and z-stacks were acquired at a speed of 400 Hz approximately 30 min post- […]
374 multinucleated (³3 nuclei) osteoclasts were counted using ImageJ [17]. […]
389 distilled water) at 37°C and monitored for development of red stained osteoclasts. […]
392 quantified from multiple tissue sections. […]
397 tumor area (TuA) was calculated as a function of the total tissue area (TotA) of the tibial medullary […]
401 An ex vivo assay was used to quantify the chemosensitivity of primary MM cells. […]

JAK2 = JAK2 (Homo sapiens, UniProt O60674); test: Kinase profiling assay (Reaction Biology), 10-dose IC50, 10 μM ATP; assay type: biochemical; settings: read-out: IC50 (nM) JAK2; NA = no activity
Description: 310 and refinement were performed with COOT [14] and Phenix.Refine to obtain a clear electron
311 density map (1Fo-Fc) for compound MA9-060, which was built into the structure near the end of
312 iterative cycles of model building and refinement. Crystal parameters, data collection statistics and
313 refinement statistics are summarized in Supplementary Fig. 4D and deposited in the protein
314 databank with PDB code 8V1M.
317 The compounds under investigation were tested by Reaction Biology Corporation against four
318 specific kinases in this study (JAK2, ULK1, ULK2, ULK3). Each compound was provided as a
319 10 mM stock solution. To facilitate dissolution, the compounds were subjected to gentle heating.
320 Subsequent testing involved the evaluation of the compounds using a 10-dose IC50 mode,
Additionally, the control compound,
Throughout these experiments, reactions were conducted using a standardized concentration
325 The data collected during these assays encompass raw data, % enzyme activity (relative to DMSO
327 activities at the highest concentration of compounds were less than 65%. The IC50 summary,
328 detailing the inhibitory concentrations of the compounds against the respective kinases, is
331 Bromodomain profiling assay
332 Briefly, four compounds (SG3-014, MA9-060, JQ1, CQ; stock concentration of 10 mM) were
333 evaluated against Bromodomain 1 by Reaction Biology Corporation. […]

[1] = Microsome stability assay, 1 μM, 1 hour; assay type: in vitro ADME; settings: % of compound remaining after 1 hour
Description: Supplementary Figure 4. Pharmacokinetic properties of MA90-60 and the structure of the MA9-060: ULK3 […]
complex. Supplementary Figure 5. Pharmacokinetic properties of MA90-60 and the structure of the MA9- […]
060: ULK3 complex. A. Enzymatic inhibition (IC50 nM) of BRD4, JAK2, ULK1, ULK2, ULK3 by SG3014 and […]
here as reference for BRD4 inhibitory activity. CQ is used here as a reference control for autophagy inhibition. NA= […]
“no activity”. B. Microsome stability assay for SG3014 and MA9060, expressed as % of compound remaining after […]
1 hour incubation with liver microsomes. C. X-ray resolved crystal structure of MA9060 (stick model) bound to […]
ULK3 rendered in Pymol (Schrodinger Inc.) at a 2.8 Å resolution. D. Table summarizing hULK3-MA9060 crystallographic data collection and refinement statistics. E. MA9060 is a dual inhibitor, able to decrease both ULK3 and MYC protein levels in MYC-dependent MM1.S MM cells. JQ1 is here included as the control for […]
mesenchymal stem cells (hMSCs) at 24 (G) and 48 (H) hours.
279 wavelengths for each dye. Images were captured through a 40X/1.3NA objective lens with a 2X […]
280 zoom using sequential acquisition on two PMT detectors. […]
286 detection algorithm was used to detect green fluorescence spots with identical intensity and size […]
295 quantification of the remaining compound was determined through High-Performance Liquid […]

[2] = tested on: mesenchymal stem cells (MSCs) and MC3T3-osteoblasts (OBL); test: MTS assay on MSCs and osteoblasts; assay type: cell-based; settings: 0.001-1 µM
Description: Supplementary Figure 3. Characterization of the novel autophagy inhibitor SG3-014. A. Chemical structure
of autophagy inhibitor SG3-014. B. BRD4 gene expression in Moffitt MM Patient Dataset, with MM patients divided
in disease stage cohorts. Data are represented as violin plots. Asterisks denote significance (Significance: (****)
P<0.0001, (***) P<0.001, (**) P<0.01, (*) P<0.05, One-way ANOVA followed by Tukey’s test). C. SG3-014
treatment (0-3 µM) decreases ULK3 protein levels in U266 MM cells (6h). JQ1 is here included as a control for
BRD4 regulation (D). E. The effects of SG3-014 (1µM) and JQ1 (10µM) (6-hour treatment) on steady state levels
of the indicated autophagy proteins in U266 MM cells. Chloroquine (CQ) (1 µM) served as a positive control for
autophagy inhibition. Temsirolimus (Tems) (1 µM), an mTOR inhibitor, is included as a control for autophagy
induction. F.-G. The effects of SG3-014 treatment on autophagic flux. m-Cherry-GFP-LC3B expressing WM1366
melanoma cells were treated with SG3-014 novel inhibitor and effects on autophagic flux were quantified by
confocal microscopy analysis (n = 7). Red puncta indicate ongoing autophagy while yellow mcherry-GFP-LC3B […]
in the acidic autophagosome pH. Quantification (G) is expressed as normalized colocalization: (sum of red and […]
SG3-014 (50 nM) are also shown. […] Quantification is shown in histograms (n = […]

## Cc1cnc(Nc2ccc(N3CCN(C)CC3)cc2)nc1Nc1ccc(Cl)c(NS(=O)(=O)C(C)(C)C)c1
osteoclasts
  osteoclastogenesis: potently inhibit
JAK2
  IC50: 4.1 nM
[1]; Human
  Microsomal Stability (%): 53.9%
[1]; Mouse
  Microsomal Stability (%): 3.5%
[2]
  effect on mesenchymal stromal cells (MSCs) or osteoblasts: no effect
